# Test results as given in patent US8337447B2, “Device for delivery of antifibrotic agents and method” (priority 2006, dated 2012).
# “Also recorded” adds a separate entry of the source.
# Test system: human conjunctival fibroblasts
# Assay: Polymer cytotoxicity in vitro, toluidine blue staining after 7 days of culture
# Type: cell-based
# Conditions: 8 mm disk in 60 mm dish, 7 days in culture
compound,measurement,value
"CO[C@@]12[C@H](COC(N)=O)C3=C(C(=O)C(C)=C(N)C3=O)N1C[C@@H]1N[C@@H]12 [MMC, mitomycin C]",effect on cell growth / cytotoxicity,no additional cytotoxic effect; also recorded: inhibited cell proliferation in a dose-dependent fashion
